From patent US5760000A (University Technologies International,Inc., priority 1994, dated 1998)

Target: T1, normal pituitary cell GnRH receptors (Rattus norvegicus, UniProt P30969)
T1 construct: normal pituitary cell GnRH receptors; from tissue; host or cells: normal rat pituitary
T1 sequence (P30969 1-327): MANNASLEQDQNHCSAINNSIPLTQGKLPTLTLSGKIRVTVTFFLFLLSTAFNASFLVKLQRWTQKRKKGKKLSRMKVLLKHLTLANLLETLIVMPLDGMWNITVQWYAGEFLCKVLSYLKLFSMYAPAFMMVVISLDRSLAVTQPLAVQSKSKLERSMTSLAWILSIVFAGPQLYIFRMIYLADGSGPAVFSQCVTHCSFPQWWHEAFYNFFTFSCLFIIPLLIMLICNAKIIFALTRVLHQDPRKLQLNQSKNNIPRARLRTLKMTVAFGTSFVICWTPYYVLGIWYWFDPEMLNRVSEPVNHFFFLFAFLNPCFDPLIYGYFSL
Assay: GnRH binding, normal rat pituitary
Conditions: Labeled ligand 125I-[D-Lys6]-GnRH, 95% confidence interval in parentheses, read-out: Receptor Binding Activity (Kd, nM) Normal Rat
Description: The displacement curves were fitted for both single and two classes of binding sites by computer calculated lines, as described.
Data analysis was performed as described.

Kd: 0.097 nM
SMILES: CC(C)C[C@H](NC(=O)[C@@H](CCCCN)NC(=O)[C@H](Cc1ccc(O)cc1)NC(=O)[C@H](CO)NC(=O)[C@H](Cc1c[nH]c2ccccc12)NC(=O)[C@H](Cc1cnc[nH]1)NC(=O)[C@@H]1CCC(=O)N1)C(=O)N[C@@H](CCCNC(=N)N)C(=O)N1CCC[C@H]1C(=O)NCC(N)=O [[D-Lys^6]-GnRH, pGlu-His-Trp-Ser-Tyr-DLys-Leu-Arg-Pro-Gly-NH2]
